# Measured values reported in PubChem BioAssay (EPA / NIEHS).
# Protein sequences, listed by entry. Tags and fused reporters are not part of them. Lines headed by an entry give the natural chain unless they say otherwise; changes in a name come on top.
# UniProt Q9UNQ0: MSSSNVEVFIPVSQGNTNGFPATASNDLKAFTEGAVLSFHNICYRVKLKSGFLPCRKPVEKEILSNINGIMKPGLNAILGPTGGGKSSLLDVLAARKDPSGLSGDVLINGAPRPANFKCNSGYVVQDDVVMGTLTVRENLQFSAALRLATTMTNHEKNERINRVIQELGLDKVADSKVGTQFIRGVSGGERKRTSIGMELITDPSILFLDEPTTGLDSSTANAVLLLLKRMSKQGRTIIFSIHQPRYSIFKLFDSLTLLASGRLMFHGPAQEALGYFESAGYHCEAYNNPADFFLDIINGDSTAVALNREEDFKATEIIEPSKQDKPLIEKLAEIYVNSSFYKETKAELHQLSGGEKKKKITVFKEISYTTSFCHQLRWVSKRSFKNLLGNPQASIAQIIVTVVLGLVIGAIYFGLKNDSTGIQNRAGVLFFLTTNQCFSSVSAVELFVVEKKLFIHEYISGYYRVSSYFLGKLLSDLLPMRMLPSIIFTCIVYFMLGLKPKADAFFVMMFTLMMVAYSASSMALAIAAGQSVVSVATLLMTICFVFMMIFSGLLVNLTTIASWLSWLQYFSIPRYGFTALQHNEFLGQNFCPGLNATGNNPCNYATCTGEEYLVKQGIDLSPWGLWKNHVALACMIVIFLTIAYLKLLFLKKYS
# UniProt P04406: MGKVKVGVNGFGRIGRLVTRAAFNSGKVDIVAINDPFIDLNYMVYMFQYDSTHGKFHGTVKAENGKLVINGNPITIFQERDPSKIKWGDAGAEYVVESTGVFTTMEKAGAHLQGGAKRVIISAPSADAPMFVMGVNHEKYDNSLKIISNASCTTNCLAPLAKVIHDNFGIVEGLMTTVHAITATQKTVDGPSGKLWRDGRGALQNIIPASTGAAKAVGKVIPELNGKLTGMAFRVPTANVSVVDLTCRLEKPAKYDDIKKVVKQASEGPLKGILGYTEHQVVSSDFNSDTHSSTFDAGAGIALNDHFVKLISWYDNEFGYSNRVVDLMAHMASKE
# Where “and” joins values, the source holds several entries; their conditions need not be identical. Equal values may be shown once. The list shows a part of the results, in another mix than the full data. Records with an inconclusive call do not appear. Some compounds were tested as several samples or in several runs, with calls that do not always agree. Calls of active or inactive are those of the source. Rule for the calls, unless noted: active = hit-call score of the fitted dose curve at least 0.9, where 1 is the maximum; inconclusive = response in the unintended direction; inactive = score below 0.9.
# Tests used:
# [1] = read-out: Broad substrate specificity ATP-binding cassette transporter ABCG2 (Homo sapiens) (UniProt Q9UNQ0); assay: CLD_ABCG2_48hr: CellzDirect (CLD) Gene Expression Assay for ABC Transporter (ABCG2) at 48 hours (AID 2283704)
# Experimental: (§1) CLD_48hr is a cell-based, multiplexed-readout assay that uses hepatocyte, a human liver primary cell, with measurements taken at 48 hours after chemical dosing in a 96-well plate.CLD_ABCG2_48hr is one of 16 assay component(s) measured or calculated from the CLD_48hr assay. It is designed to make measurements of mRNA induction, a form of inducible reporter, as detected with chemiluminescence signals by Quantitative Nuclease Protection Assay (qNPA) technology.Data from the assay component CLD_ABCG2_48hr was analyzed at the endpoint, CLD_ABCG2_48hr, in the positive analysis fitting direction relative to DMSO as the negative control and baseline of activity. […] Furthermore, this assay endpoint can be referred to as a primary readout. […]
# (§2) Human hepatocyte cultures were treated daily for two consecutive days with fresh dosing solutions containing appropriate concentrations of the 320 ToxCast chemicals (chemical identities were blinded to CellzDirect and other ToxCast collaborators), vehicle control (0.2% DMSO), and positive control inducers as summarized in Table 1. […] Cultures for each treatment group (i.e., media, vehicle [0.2% DMSO], positive control inducers [multiple concentrations], and the ToxCast chemicals [multiple concentrations]) were observed and cell morphology was assessed relative to vehicle control cultures at each harvest time point (0, 6, 24, or 48 h). […]
# [2] = read-out: alkyl and aryl transferase (GSTA2), GSTA2 (gene 2939); assay: CLD_GSTA2_48hr: CellzDirect (CLD) Gene Expression Assay for alkyl and aryl transferase (GSTA2) at 48 hours (AID 2283708);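 note: active means mRNA induction above DMSO vehicle baseline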
# Experimental: CLD_48hr is a cell-based, multiplexed-readout assay that uses hepatocyte, a human liver primary cell, with measurements taken at 48 hours after chemical dosing in a 96-well plate.CLD_GSTA2_48hr is one of 16 assay component(s) measured or calculated from the CLD_48hr assay. It is designed to make measurements of mRNA induction, a form of inducible reporter, as detected with chemiluminescence signals by Quantitative Nuclease Protection Assay (qNPA) technology.Data from the assay component CLD_GSTA2_48hr was analyzed at the endpoint, CLD_GSTA2_48hr, in the positive analysis fitting direction relative to DMSO as the negative control and baseline of activity. Using a type of inducible reporter, gain-of-signal activity can be used to understand changes in the reporter gene as they relate to the gene GSTA2. Furthermore, this assay endpoint can be referred to as a primary readout. To generalize the intended target to other relatable targets, this assay endpoint is annotated to the transferase intended target family, where subfamily is alkyl and aryl transferase.
# Human hepatocyte cultures were treated daily for two consecutive days with fresh dosing solutions containing appropriate concentrations of the 320 ToxCast chemicals (chemical identities were blinded to CellzDirect and other ToxCast collaborators), vehicle control (0.2% DMSO), and positive control inducers as summarized in Table 1. […] These replicate data, coupled with internal replicates designed within the blinded ToxCast chemical library, provided additional data to evaluate interindividual differences between hepatocyte preparations and their potential impact on chemical profiles.Cell morphology and integrity were evaluated using phase-contrast microscopy as an indicator of hepatocyte cell health (Tyson & Green, 1987). Cultures for each treatment group (i.e., media, vehicle [0.2% DMSO], positive control inducers [multiple concentrations], and the ToxCast chemicals [multiple concentrations]) were observed and cell morphology was assessed relative to vehicle control cultures at each harvest time point (0, 6, 24, or 48 h). […]
# [3] = read-out: glucuronosyltransferase (UGT1A1), UGT1A1 (gene 54658); assay: CLD_UGT1A1_48hr: CellzDirect (CLD) Gene Expression Assay for glucuronosyltransferase (UGT1A1) at 48 hours (AID 2283709);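 note: actives increase expression relative to DMSO so potency refers to induction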
# Summary of the method: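 Quantitative nuclease protection assay (chemiluminescent) for UGT1A1 mRNA at 48 h in human hepatocyte cultures from two donors, redosed daily with fresh solutions. Induction fitted relative to 0.2% DMSO; phase-contrast morphology annotated cytotoxicity.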
# [4] = read-out: sulfotransferase (SULT2A), SULT2A1 (gene 6822); assay: CLD_SULT2A_48hr: CellzDirect (CLD) Gene Expression Assay for sulfotransferase (SULT2A) at 48 hours (AID 2283710);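 note: hits raise SULT2A1 transcript above the 0.2% DMSO vehicle baseline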
# Experimental: as §1, with “plate.CLD_SULT2A_48hr” for “plate.CLD_ABCG2_48hr”, “CLD_SULT2A_48hr” for “CLD_ABCG2_48hr”, “CLD_SULT2A_48hr,” for “CLD_ABCG2_48hr,”
# as §2
# [5] = read-out: Glyceraldehyde-3-phosphate dehydrogenase (Homo sapiens) (UniProt P04406); assay: CLD_GAPDH_48hr: CellzDirect (CLD) Gene Expression Assay for Baseline Control (Glyceraldehyde 3-phosphate dehydrogenase) at 48 hours (AID 2283706);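 note: active means higher GAPDH mRNA than DMSO vehicle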
# Experimental: as §1, with “plate.CLD_GAPDH_48hr” for “plate.CLD_ABCG2_48hr”, “CLD_GAPDH_48hr” for “CLD_ABCG2_48hr”, “CLD_GAPDH_48hr,” for “CLD_ABCG2_48hr,”, “secondary readout, because this assay has produced multiple assay endpoints where this one serves a background control function.” for “primary readout.”
# Human hepatocyte cultures were treated daily for two consecutive days with fresh dosing solutions containing appropriate concentrations of the 320 ToxCast chemicals (chemical identities were blinded to CellzDirect and other ToxCast collaborators), vehicle control (0.2% DMSO), and positive control inducers as summarized in Table 1. […] Images were evaluated at the conclusion of the study to assess changes in cell integrity and account for the effects of chemical exposure on uncharacteristic changes in concentration-dependent gene expression profiles. […]
# [6] = read-out: HMG-CoA synthase (HMGCS2), HMGCS2 (gene 3158); assay: CLD_HMGCS2_48hr: CellzDirect (CLD) Gene Expression Assay for HMG-CoA synthase (HMGCS2) at 48 hours (AID 2283711)
# Experimental: as §1, with “plate.CLD_HMGCS2_48hr” for “plate.CLD_ABCG2_48hr”, “CLD_HMGCS2_48hr” for “CLD_ABCG2_48hr”, “CLD_HMGCS2_48hr,” for “CLD_ABCG2_48hr,”
# as §2
# [7] = STM_H9_OrnithineISnorm_perc: Stemina devTOX quickPredict H9 human embryonic stem cell (hESC)-based Assay for Ornithine (ORN) Metabolite Biomarker, Normalized (AID 2283712; active = hit-call score of the fitted dose curve at least 0.9, where 1 is the maximum; inactive = score below 0.9;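 note: ornithine released into spent medium during last day measured by mass spectrometry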)
# Summary of the method: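 Ornithine secreted by H9 hESCs after 72h compound treatment (daily media/compound renewal) was quantified in final-day media by UPLC-HRMS. Values are isotope-standard-normalized, expressed relative to 0.1% DMSO, fitted in positive direction.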
# [8] = STM_H9_CystineISnorm_perc: Stemina devTOX quickPredict H9 human embryonic stem cell (hESC)-based Assay for Cystine (CYSS) Metabolite Biomarker, Normalized (AID 2283713; active = hit-call score of the fitted dose curve at least 0.9, where 1 is the maximum; inactive = score below 0.9)
# Summary of the method: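 Cells are held undifferentiated and treated for 72h, receiving fresh medium with compound every 24h. Cystine secreted during the final day is quantified by UPLC-HRMS against a labeled spike-in, then expressed relative to the DMSO vehicle median.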
# [9] = STM_H9_OrnCyssISnorm_ratio: Stemina devTOX quickPredict H9 human embryonic stem cell (hESC)-based Assay for Ornithine (ORN):Cystine (CYSS) Ratio (AID 2283714)
# Experimental: STM_H9_secretome utilizes undifferentiated H9 cells to measure relative changes in two metabolites, ornithine (ORN) and cystine (CYSS) in the secretome, targeting a critical drop in the ORN/CYSS ratio as a biomarker for developmental toxicity.STM_H9_OrnCyssISnorm_ratio is one of 10 components calculated in the STM_H9_secretome assay. It is the ratio value of OrnISnorm_perc to CyssISnorm_perc.Data from the assay component STM_H9_OrnCyssISnorm_ratio was analyzed at the assay endpoint STM_H9_OrnCyssISnorm_ratio in the positive analysis fitting direction relative to DMSO as the negative control and baseline of activity. […]
# H9 hESCs maintained in a pluripotent state were exposed to test compound for 72h with chemical replenishment with media replacement every 24h. Cell-conditioned media from the final 24-h treatment period was collected for analysis of the targeted biomarker, and cell viability of the corresponding cell layer was assessed. […] Each test plate included 1uM Methotrexate (MTX; Selleck Chemicals, Houston, Texas) as a positive reference, 5 nM MTX as a negative reference, 0.1% DMSO as the neutral (vehicle) control, and sample-level media blanks.H9 cell-conditioned media from the final 24-h treatment period was collected for analysis of the targeted biomarker and cell viability was measured from the corresponding cell layer. […]
# [10] = CEETOX_H295R_MTT_cell_viability: Viability Assessment in the CeeTox HT-H295R MTT Assay (AID 2283718; active = hit-call score of the fitted dose curve at least 0.9, where 1 is the maximum; inactive = score below 0.9)
# Summary of the method: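 H295R cells prestimulated 48 h with 10 uM forskolin, then exposed 48 h to test chemical (0.1% DMSO final). Viability by MTT (0.5 mg/ml, 4 h, 37 C), absorbance 570/650 nm; percent change versus DMSO, bidirectional fit.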
structure (smiles),measurement,setting,value
CC(C)OP(=S)(OC(C)C)SCCNS(=O)(=O)c1ccccc1,outcome,[1],inactive
same,AC50,[2],active: 32 µM
same,outcome,[2],inactive
same,AC50,[3],active: 1.9 µM and active: 1.07 µM and active: 2.54 µM
same,outcome,[4],inactive
O=C1C2CC=CCC2C(=O)N1SC(Cl)(Cl)C(Cl)Cl (stereo unspecified),outcome,[1],inactive
same,outcome,[5],inactive
same,outcome,[2],inactive
same,outcome,[3],inactive
same,outcome,[4],inactive
same,outcome,[6],inactive
same,AC50,[7],active: 4.65 µM
same,AC50,[8],active: 1.16 µM
same,AC50,[9],active: 3.43 µM
same,outcome,[10],inactive
O=[N+]([O-])c1ccc([N+](=O)[O-])cc1,AC50,[9],active: 79.8 µM
